Patent US11407979B2, “Intermittent starvation techniques to prolong functional lifetime of liver cells in culture” (Colorado State University Research Foundation, priority 2017, dated 2022)

Test system: primary human hepatocytes in micropatterned co-cultures (MPCCs)
[1] = metformin 250 μM for 2 days every week for 4 weeks in serum-containing medium, over time, vs non-starved cultures

- functional lifetime of hepatocytes (metformin treatment in MPCCs over an untreated control, not to the same extent as the starvation protocol): significantly prolonged
Structure (SMILES): CN(C)C(=N)N=C(N)N [metformin]
- albumin production, fold higher than non-starved cultures [1]: 1.5 fold
- urea production, fold higher than non-starved cultures [1]: 1.6 fold
